Sequences of proteins named here, by UniProt entry; tags and fusion partners are left off. A change or cut given only in a name is not applied to a line headed by its entry.
UniProt P07382: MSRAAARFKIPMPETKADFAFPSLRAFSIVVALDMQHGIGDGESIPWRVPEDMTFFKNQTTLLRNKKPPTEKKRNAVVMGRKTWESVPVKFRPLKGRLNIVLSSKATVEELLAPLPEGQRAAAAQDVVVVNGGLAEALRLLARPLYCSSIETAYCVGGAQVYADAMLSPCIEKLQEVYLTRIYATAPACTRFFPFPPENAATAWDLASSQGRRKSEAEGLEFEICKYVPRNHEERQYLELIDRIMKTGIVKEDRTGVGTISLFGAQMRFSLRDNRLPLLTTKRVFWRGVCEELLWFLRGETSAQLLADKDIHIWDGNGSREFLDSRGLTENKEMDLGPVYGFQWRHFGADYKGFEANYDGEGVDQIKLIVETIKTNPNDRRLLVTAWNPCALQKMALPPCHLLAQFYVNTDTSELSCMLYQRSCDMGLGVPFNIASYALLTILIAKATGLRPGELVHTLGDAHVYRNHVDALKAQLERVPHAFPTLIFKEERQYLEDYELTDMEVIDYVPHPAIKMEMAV
UniProt Q27783: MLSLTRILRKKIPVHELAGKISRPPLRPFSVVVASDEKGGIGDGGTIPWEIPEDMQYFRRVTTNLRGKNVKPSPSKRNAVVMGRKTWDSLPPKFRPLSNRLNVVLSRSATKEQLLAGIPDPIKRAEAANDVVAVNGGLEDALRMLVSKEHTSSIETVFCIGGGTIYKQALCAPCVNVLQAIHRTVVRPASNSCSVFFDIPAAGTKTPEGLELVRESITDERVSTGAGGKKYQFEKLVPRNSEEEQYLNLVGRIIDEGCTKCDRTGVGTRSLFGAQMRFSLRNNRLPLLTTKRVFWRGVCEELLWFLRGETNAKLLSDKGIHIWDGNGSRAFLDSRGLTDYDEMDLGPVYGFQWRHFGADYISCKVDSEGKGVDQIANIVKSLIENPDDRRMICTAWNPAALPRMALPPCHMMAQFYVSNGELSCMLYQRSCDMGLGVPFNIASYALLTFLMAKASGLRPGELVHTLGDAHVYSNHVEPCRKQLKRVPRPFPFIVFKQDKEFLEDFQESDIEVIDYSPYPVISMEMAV

According to patent US9611503B2, “Escherichia coli cell line with thyA knockout and folA knockout” (priority 2011, dated 2017):

Key:
[1] = target: T1, DHFR-TS from Leishmania major (Leishmania major, UniProt P07382); assay: In vitro biochemical enzyme inhibition assay, purified DHFR-TS
T1 construct: made in house; host or cells: E. coli

[2] = target: T2, DHFR-TS from Trypanosoma brucei (wildtype) (Trypanosoma brucei brucei, UniProt Q27783); assay: as above
T2 construct: made in house; host or cells: E. coli

## CCc1nc(N)nc(N)c1-c1ccc(Cl)cc1 [Pyrimethamine]
[1]
  Ki: 0.2 ± 0.059 µM
[2]
  Ki: 0.0146 ± 0.00059 µM
